By UniProt entry, the sequences of proteins in these tests, tags left out. Where a name states a change or a piece, a line headed by the entry shows the natural chain unless it says otherwise.
UniProt P12931: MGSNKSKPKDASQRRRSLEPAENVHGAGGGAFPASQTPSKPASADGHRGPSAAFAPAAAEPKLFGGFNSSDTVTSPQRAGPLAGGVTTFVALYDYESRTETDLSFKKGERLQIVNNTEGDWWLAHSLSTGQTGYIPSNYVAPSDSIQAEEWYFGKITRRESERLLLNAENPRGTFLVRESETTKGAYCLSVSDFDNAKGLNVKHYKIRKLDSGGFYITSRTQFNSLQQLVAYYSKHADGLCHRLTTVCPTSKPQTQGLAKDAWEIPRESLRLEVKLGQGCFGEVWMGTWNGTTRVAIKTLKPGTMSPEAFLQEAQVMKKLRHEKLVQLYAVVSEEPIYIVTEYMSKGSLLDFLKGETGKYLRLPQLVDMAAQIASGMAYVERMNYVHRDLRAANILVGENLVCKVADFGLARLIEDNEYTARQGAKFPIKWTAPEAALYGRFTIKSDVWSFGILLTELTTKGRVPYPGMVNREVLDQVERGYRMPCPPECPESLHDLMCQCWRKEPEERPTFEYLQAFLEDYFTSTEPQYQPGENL

In ChEMBL document CHEMBL3822371, “Rapid Discovery and Structure-Activity Relationships of Pyrazolopyrimidines That Potently Suppress Breast Cancer Cell Growth via SRC Kinase Inhibition with Exceptional Selectivity over ABL Kinase” (J Med Chem, 2016):

Legend:
[1] = in vivo; settings: CD1, mouse, po, 10 mg/kg
[2] = biological target: T1, Proto-oncogene tyrosine-protein kinase Src (Homo sapiens, UniProt P12931); experiment: biochemical
[3] = biological target: T1, Proto-oncogene tyrosine-protein kinase Src; experiment: biochemical; remark: listed apart in the source

IC50 [3] [nM] | SMILES | bioavailability [1] [%] | Ki [2] [nM]
 | COc1cc(-c2nn(CCN3CCC(N(C)C)CC3)c3ncnc(N)c23)ccc1NC(=O)OC(C)(C)C | 25.3 | 0.8
< 0.5 | COc1cc(-c2nn(CCN3CCC(N4CCCC4)CC3)c3ncnc(N)c23)ccc1NC(=O)OC(C)(C)C |  | 
